PDI turbidity – inhibitors of human PDI, primary screen, biochemical, turbidity, single point, plate reader; Protein disulfide-isomerase (Homo sapiens), P07237; inhibition, % at 10 µM; 350,000 tested, 0.052% active; PDI insulin aggregation turbidity, A650, 90 min;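 active = mean inhibition across replicates of 30% or more, whatever share of single replicates reach that level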
GSIS activator – GLuc luminescence reporter in INS-1E cells, primary screen for activators of glucose-dependent secretion of insulin | activation, % at 16.6 µM | 370,000 tested, 0.61% active | INS-1E GLuc reporter insulin secretion, 2-3 h | AID 743287, 2014;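 active = lowest replicate activation of at least 40%, so every replicate reaches that level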;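 note: 0% = median of neutral control wells and 100% = median of IBMX positive control wells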
UUG fidelity – modulators of yeast start codon fidelity, primary screen, whole organism, S. cerevisiae, single point, plate reader; S. cerevisiae UUG-firefly luciferase reporter, luminescence/redox ratio; activity score, % at 18.7 µM; actives 0.13% (n = 350,000); AID 602363, 2012;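 active = replicate mean at a twofold rise or more, about +100% in these data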;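 also: firefly luciferase made from a UUG start codon reports start codon fidelity; reporter light over untreated wells divided by growth signal over untreated wells; some hits fall short of that in this replicate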
Rev-erbA mod – modulators of Rev-erb alpha DNA binding, primary screen, biochemical, FITC-DNA, fluorescence polarization, uHTS; AID 1259318, 2017; activity, % at 10 µM; Rev-erbα–FITC-DNA binding, 90 min; 370,000 tested, 0.79% active; Nuclear receptor subfamily 1 group D member 1 (Homo sapiens), P20393;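 active = activity above about 14%, limit read from the data; passing the limit was not always enough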;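 note: 0% = DMSO wells with 35 nM protein and 100% = DMSO wells with 750 nM protein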
SMARCA2 activ – SMARCA2 (BRM) function activators, primary screen, cell-based, luminescence, high throughput; MG213 cells, MMTV-luciferase reporter, dexamethasone, overnight; activation, % at 9.1 µM; 370,000 tested, 1% active; in the data active = activation above about 7.8%;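 note: 0% = vehicle wells and 100% = reference activator wells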
ERp5 inh – inhibitors of ERp5-driven insulin aggregation, primary screen, biochemical, turbidity, absorbance 650 nm, single point. inhibition, % at 9.99 µM. 350,000 tested, 0.05% active. AID 651711, 2012. 90 min;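 active = mean replicate inhibition above about 25%, with every replicate also reaching it, limit read from the data, passing the limit was not always enough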
NR1D1 mod conf – modulators of Rev-erb alpha DNA binding, confirmation, biochemical, FITC-DNA, fluorescence polarization, single point | shares compounds with Rev-erbA mod | 90 min | activation, % at 25 µM | 3,000 tested, 61% active;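 active = activation at or above a set limit, or at least 3 SD above the negative control mean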;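 note: 0% = 35 nM protein with DMSO and 100% = 750 nM protein high control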
RORg DNA counter – modulation of RORgamma DNA binding, dose response, counter-screen for Rev-erb alpha modulator project, biochemical, fluorescence polarization, FITC-DNA | shares compounds with Rev-erbA mod | purified RORgamma protein-FITC-DNA binding | IC50, µM | 910 tested, 8% active | AID 1259320, 2017;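 active = Compounds whose fitted half-maximal concentration for disrupting protein-DNA binding is below 10 micromolar; the record names Rev-erb in its text, so the target is in doubt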
An asterisk follows results filed as active; i = inactive; nt = no result. A selection: hits, their analogues and other compounds. The true share with any hit is near 2.1%.

The chains behind the UniProt entries cited, without tags or fusion partners.
Protein disulfide-isomerase (Homo sapiens), P07237, UniProt P07237, whole entry, looked up: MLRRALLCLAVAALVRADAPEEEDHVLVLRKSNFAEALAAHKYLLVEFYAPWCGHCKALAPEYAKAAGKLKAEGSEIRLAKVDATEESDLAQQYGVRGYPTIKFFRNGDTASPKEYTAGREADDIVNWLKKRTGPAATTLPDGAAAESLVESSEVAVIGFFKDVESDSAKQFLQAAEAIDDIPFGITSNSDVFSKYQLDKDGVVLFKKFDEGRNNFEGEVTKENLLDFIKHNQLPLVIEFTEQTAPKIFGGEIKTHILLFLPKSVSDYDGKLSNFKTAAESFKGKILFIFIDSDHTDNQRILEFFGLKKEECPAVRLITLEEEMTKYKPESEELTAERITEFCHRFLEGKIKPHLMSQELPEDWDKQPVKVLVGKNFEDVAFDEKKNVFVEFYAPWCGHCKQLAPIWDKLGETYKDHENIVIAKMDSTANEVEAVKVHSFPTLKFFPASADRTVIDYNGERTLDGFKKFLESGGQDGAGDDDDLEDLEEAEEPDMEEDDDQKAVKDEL

SMILES | PDI turbidity | GSIS activator | UUG fidelity | Rev-erbA mod | SMARCA2 activ | ERp5 inh | NR1D1 mod conf | others
COc1ccc(-c2cc(C(F)F)n3ncc(C(=O)NCC4CCCO4)c3n2)cc1 (stereo not drawn) | -10 | nt | -7 | 36* | -1 | nt | 15
C[C@H](CO)N1C[C@H](C)[C@@H](CN(C)Cc2ccncc2)Oc2ccc(NC(=O)Cc3cn(C)c4ccccc34)cc2CC1=O | nt | -24 | -7 | nt | nt | 1 | nt
COc1ccc2cc(C#N)c(SCC(=O)Nc3nonc3C)nc2c1 | -4 | -6 | nt | 67* | 3 | 0 | 27*
CCc1cc2ccc(OC)cc2nc1SCC(=O)NNC(C)=O | -4 | 21 | -5 | 2 | -3 | 3 | nt
CCOC(=O)CSc1nc2cc(OC)ccc2cc1C#N | -5 | nt | -9 | 30* | 4 | nt | 31*
CCC(=O)NCCNc1nc2cc(C)c(C)cc2cc1C#N | 9 | nt | -17 | -2 | 0 | nt | nt
Cc1nonc1NC(=O)CSc1nc2c(C)cccc2cc1C#N | -10 | 7 | nt | 81* | 2 | nt | 73* | RORg DNA counter=>40
CCOC(=O)CSc1nc2cc(C)ccc2cc1C#N | 1 | nt | -1 | 3 | 4 | nt | nt
Cc1cc2cc(C#N)c(SCC(=O)Nc3nonc3C)nc2cc1C | -2 | 10 | -21 | 20* | 0 | 1 | 33* | RORg DNA counter=i
Cc1ccc(C)c2nc(SCC(=O)Nc3ccc4c(c3)OCO4)c(C#N)cc12 | -7 | -8 | -13 | -1 | 2 | 1 | nt
COc1cc(C=Cc2nnc3c4ccccc4cnn23)cc(OC)c1OC | 3 | nt | -30 | 50* | -1 | 3 | 36* | RORg DNA counter=>40
C[C@H]1CN([C@@H](C)CO)C(=O)c2cc(-c3ccccc3)cnc2O[C@H]1CN(C)Cc1cccnc1 | nt | 14 | -5 | nt | nt | -2 | nt
C[C@@H]1CN([C@H](C)CO)C(=O)c2cc(/C=C/c3ccccc3)cnc2O[C@@H]1CN(C)S(C)(=O)=O | nt | -5 | 10 | nt | nt | -3 | nt
Cc1ccc(C2(C(F)(F)F)NC(=O)N3C(=C2C#N)Nc2ccccc23)cc1 (stereo not drawn) | 2 | nt | -18 | 33* | 1 | nt | 32* | RORg DNA counter=i
Cc1cc(-c2csc3nc[nH]c(=S)c23)cc(C)c1C | -2 | 12 | -29 | 61* | 0 | 0 | 62* | RORg DNA counter=>40
C[C@H]1CN([C@@H](C)CO)C(=O)c2cc(NC(=O)Cc3cn(C)c4ccccc34)ccc2O[C@@H]1CN(C)Cc1ccc(Oc2ccccc2)cc1 | nt | -22 | 18 | nt | nt | 4 | nt
CC(=O)c1ccc(N2CCN(S(=O)(=O)c3cc(-c4cc(C)no4)ccc3C(C)C)CC2)cc1 | 1 | -2 | -20 | 26* | -2 | -5 | 22*
CCc1ccc(-c2cc(C)no2)cc1S(=O)(=O)N1CCN(c2cc(C)ccc2C)CC1 | -2 | 4 | -20 | 3 | -1 | -3 | nt
Cc1cc(-c2ccc(C(C)C)c(S(=O)(=O)N3CCN(c4ccccc4)CC3)c2)on1 | 15 | 9 | 6 | 0 | -2 | -6 | nt
CCc1ccc(-c2cc(C)no2)cc1S(=O)(=O)N1CCN(c2ccc(C(C)=O)cc2)CC1 | -10 | 2 | -10 | 27* | -6 | 5 | 18*

5 entries out of the list, ordered by length of the SMILES, descending.
SMILES | PDI turbidity | GSIS activator | UUG fidelity | Rev-erbA mod | SMARCA2 activ | ERp5 inh | NR1D1 mod conf | others
C[C@H](CO)N1C[C@H](C)[C@@H](CN(C)Cc2ccncc2)Oc2ccc(NC(=O)Cc3cn(C)c4ccccc34)cc2CC1=O | nt | -24 | -7 | nt | nt | 1 | nt
C[C@H]1CN([C@@H](C)CO)C(=O)c2cc(-c3ccccc3)cnc2O[C@H]1CN(C)Cc1cccnc1 | nt | 14 | -5 | nt | nt | -2 | nt
CCc1ccc(-c2cc(C)no2)cc1S(=O)(=O)N1CCN(c2ccc(C(C)=O)cc2)CC1 | -10 | 2 | -10 | 27* | -6 | 5 | 18*
CCc1ccc(-c2cc(C)no2)cc1S(=O)(=O)N1CCN(c2cc(C)ccc2C)CC1 | -2 | 4 | -20 | 3 | -1 | -3 | nt
Cc1cc(-c2csc3nc[nH]c(=S)c23)cc(C)c1C | -2 | 12 | -29 | 61* | 0 | 0 | 62* | RORg DNA counter=>40

(listing goes on)
SMILES | PDI turbidity | GSIS activator | UUG fidelity | Rev-erbA mod | SMARCA2 activ | ERp5 inh | NR1D1 mod conf | others
CCOC(=O)c1c(C)nc2c3ccccc3ccn12 | -3 | nt | -25 | 0 | 7 | nt | nt
CCOC(=O)c1c(C)c(C#N)c2c3ccccc3ccn12 | -5 | nt | -20 | 58* | 2 | nt | 17*
O=C(Cc1sc(-c2ccccc2)nc1-c1ccccc1)Nc1ccc(Cl)cc1 | -12 | -12 | -5 | 25* | 0 | nt | 33* | RORg DNA counter=>40
NC(=O)c1cc2cc(Cc3ccccc3Cl)ccc2oc1=O | 2 | 3 | 2 | 20* | -1 | -3 | 17
CNC(=O)c1cc2cc(Cc3ccccc3Cl)ccc2oc1=O | -5 | 2 | -10 | 11 | -2 | -5 | nt
Cc1cc(NC(=O)CC(C)(C)C)nc2c1c(=O)oc1ccccc12 | -9 | -4 | -15 | 38* | 4 | 1 | 8
COc1ccc(C(=O)Nc2cc(C)c3c(=O)oc4ccccc4c3n2)cc1 | 3 | 1 | -29 | 21 | -5 | 0 | nt
Cc1cc(NC(=O)c2ccccc2F)nc2c1c(=O)oc1ccccc12 | 5 | 0 | -8 | 32* | 0 | -5 | 5
CCCC(=O)Nc1cc(C)c2c(=O)oc3ccccc3c2n1 | 5 | -4 | 2 | -3 | -1 | -4 | nt
C[C@@H]1CCCCO[C@@H](CN(C)C(=O)Nc2cccc3ccccc23)[C@H](C)CN([C@H](C)CO)C(=O)c2cc(NS(=O)(=O)c3cccs3)ccc2O1 | nt | 2 | -11 | nt | nt | 6 | nt
CCN(CC)c1ccc2cc(-c3nc(-c4ccc(OC)cc4)cs3)c(=O)oc2c1 | nt | -43 | nt | 40* | 1 | 3 | 29*
CCCNC(=O)C[C@H]1CC[C@H]2[C@@H](COC[C@@H](O)CN2C(=O)c2cc(Cl)cc(Cl)c2)O1 | nt | 8 | -2 | nt | nt | 3 | nt
C[C@H](CO)N1C[C@H](C)[C@H](CN(C)C(=O)c2ccc(F)cc2)Oc2cc(-c3cccc(C#N)c3)ccc2S1(=O)=O | nt | -8 | 3 | nt | nt | 1 | nt
O=C(NCc1cccc2ccccc12)Nc1ccccc1 | 14 | 0 | nt | -6 | 1 | -56 | nt
CNc1ccccc1/C(O)=C(\C#N)C(=O)NCc1cccc2ccccc12 | nt | nt | nt | 42* | -1 | nt | 26*
C[C@@H]1CCCCO[C@H](CN(C)CC2CC2)[C@H](C)CN([C@H](C)CO)C(=O)c2cc(NC(=O)NC3CCCCC3)ccc2O1 | nt | 2 | nt | nt | nt | 0 | nt
CCC(=O)c1cn(CC(=O)Nc2ccccc2Cl)c2ccccc12 | -4 | 9 | -14 | 80* | -2 | 3 | 44* | RORg DNA counter=>40
CCC(=O)c1cn(CC(=O)Nc2cccc(C)c2)c2ccccc12 | -2 | 3 | -9 | 52* | 0 | 0 | 45* | RORg DNA counter=i
Cc1ccc(S(=O)(=O)Nc2ccc3c(c2)C(=O)N([C@H](C)CO)C[C@H](C)[C@H](CN(C)CC2CCCCC2)OCCCC[C@H](C)O3)cc1 | nt | 12 | 24 | nt | nt | -2 | nt
C[C@H](CO)N1C[C@H](C)[C@H](CN(C)CC2CCCCC2)Oc2ccc(NS(=O)(=O)c3ccc(Cl)cc3)cc2CC1=O | nt | -1 | 8 | nt | nt | 2 | nt
CCc1cc2c(=O)[nH]c(Cc3ccccc3)nc2s1 | -5 | nt | -7 | 1 | 2 | nt | nt
